The target of assay [1] is T1, Progesterone receptor (Homo sapiens, UniProt P06401).
T1 sequence (P06401 whole entry): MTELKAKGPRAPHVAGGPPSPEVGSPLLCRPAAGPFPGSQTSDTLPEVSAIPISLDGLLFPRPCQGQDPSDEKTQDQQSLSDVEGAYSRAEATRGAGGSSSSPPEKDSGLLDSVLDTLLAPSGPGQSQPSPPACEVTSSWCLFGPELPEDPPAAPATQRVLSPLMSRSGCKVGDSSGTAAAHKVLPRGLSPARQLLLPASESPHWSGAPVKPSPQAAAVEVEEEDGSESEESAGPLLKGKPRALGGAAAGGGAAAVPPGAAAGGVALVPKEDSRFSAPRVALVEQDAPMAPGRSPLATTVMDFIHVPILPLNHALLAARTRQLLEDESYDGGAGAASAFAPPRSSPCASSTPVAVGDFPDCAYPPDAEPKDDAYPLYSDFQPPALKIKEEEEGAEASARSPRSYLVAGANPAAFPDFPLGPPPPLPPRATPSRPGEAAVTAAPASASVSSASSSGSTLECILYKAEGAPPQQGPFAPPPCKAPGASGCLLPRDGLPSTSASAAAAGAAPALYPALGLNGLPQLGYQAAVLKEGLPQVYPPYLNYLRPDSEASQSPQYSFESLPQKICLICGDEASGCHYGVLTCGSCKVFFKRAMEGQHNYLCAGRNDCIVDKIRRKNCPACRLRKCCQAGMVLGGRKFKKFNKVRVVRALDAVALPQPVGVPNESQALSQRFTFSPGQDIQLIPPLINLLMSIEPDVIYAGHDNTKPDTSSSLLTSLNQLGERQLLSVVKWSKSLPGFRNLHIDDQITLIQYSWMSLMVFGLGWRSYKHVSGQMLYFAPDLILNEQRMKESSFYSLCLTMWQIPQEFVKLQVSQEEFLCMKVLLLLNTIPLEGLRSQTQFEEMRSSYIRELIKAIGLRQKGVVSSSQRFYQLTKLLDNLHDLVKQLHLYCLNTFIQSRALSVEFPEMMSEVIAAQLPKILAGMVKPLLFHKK
Briefly: Effective concentration for agonist activity towards human progesterone receptor (hPR) expressed in CV-1 cells; Not active. It counts as functional, cell-based.

The target in assay [2] is T1, Progesterone receptor. Nature of the assay: Inhibitory concentration for antagonistic activity towards human progesterone receptor (hPR) using the cotransfection assay in CV-1 cells; Not active. In kind it is functional, cell-based.

Regarding `CC#C[C@]1(O)CC[C@H]2[C@@H]3CCC4=CC(=O)CCC4=C3[C@@H](c3ccc(N(C)C)cc3)C[C@@]21C` [MIFEPRISTONE], the EC50 entry at Progesterone receptor [1] is on record as “Not Active”.

Regarding `CC(=O)[C@H]1CC[C@H]2[C@@H]3CCC4=CC(=O)CC[C@]4(C)[C@H]3CC[C@]12C` [PROGESTERONE], the IC50 entry against Progesterone receptor [2] is given as “Not Active”.

Values taken from ChEMBL document CHEMBL1136068 (Bioorg Med Chem Lett, 2003).
